The record followed here is PubChem BioAssay AID463210 (The Scripps Research Institute Molecular Screening Center, 2010).

Chains of the proteins cited; added tags and fusions are not shown.
UniProt P55210, whole entry D23A/D198A/D206A: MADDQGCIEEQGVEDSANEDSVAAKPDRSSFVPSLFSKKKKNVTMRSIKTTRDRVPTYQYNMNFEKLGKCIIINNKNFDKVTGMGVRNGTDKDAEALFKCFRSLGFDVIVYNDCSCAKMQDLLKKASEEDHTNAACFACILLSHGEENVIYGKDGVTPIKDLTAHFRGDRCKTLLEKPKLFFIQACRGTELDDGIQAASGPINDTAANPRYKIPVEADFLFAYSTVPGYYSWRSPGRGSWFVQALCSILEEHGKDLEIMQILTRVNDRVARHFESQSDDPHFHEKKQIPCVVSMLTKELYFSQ

This is a selection; strong and weak results do not stand in their true shares. Some of these compounds have results that are not shown, active ones among them. Active and inactive are the calls of the source.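 Rule for the calls: active = percent activation above the screen-wide mean plus 3 SD (cut at about 25% in these data); inactive = the rest.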

In the assay the target is Caspase-7 (Homo sapiens) (UniProt P55210). Briefly: activation of procaspase-7 enzyme – biochemical, absorbance, HTS, human, counter-screen for procaspase-3 activator project, primary screen (AID 463210). The following applies: recombinant procaspase-7, Ac-DEVD-pNA absorbance 405 nm; at 8.5 µM; active compounds read high; D23A/D198A/D206A triple mutant, cannot self-cleave; scale: DMSO 0, 5 µM enzyme 100. The method, boiled down: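 Assay system: Uncleavable procaspase-7 mutant enzyme | Input: 2 µM procaspase-7 mutant as dispensed | Timing: 1 h compound preincubation, 2 h substrate cleavage, 25 °C | Repeats: One well per compound | Control set: DMSO wells as 0%, DMSO with 5 µM added PC-7 as 100% | Technique: Epi-absorbance of released pNA at 405 nm, two timepoints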
Background: The purpose of a counterscreen is to sort out artefacts and off-target activity.
For `C=CCN1CCN(CCOC(=O)C(O)(c2ccccc2)c2ccccc2)CC1`, the activation was inactive: 19.9%.
As for `O=C(NCC1(N2CCCCC2)CCCCC1)c1cc(F)c(F)cc1Cl`, the figure is inactive: -8.32%.
On to `Cc1cc(C(=O)NCC2(N3CCCCC3)CCCCC2)ccc1[N+](=O)[O-]`, for which the activation was inactive: 8.24%.
As for `CCN1CCCC(OC(=O)C2(O)c3ccccc3C=Cc3ccccc32)C1` (centres undefined), the figure is inactive: -1.86%; as for `O=C(NCC1(N2CCCCC2)CCCCC1)c1cccc(Br)c1`, inactive: 9.13%; as for `COc1ccc(C(=O)NCC2(N(C)C)CCCCC2)cc1`, inactive: 4.37%.
As for `Cc1ccccc1C(=O)NCC1(N2CCCCC2)CCCCC1`, the figure is inactive: 6.61%; as for `CN(C)C1CCCC1OC(=O)C(O)(c1ccccc1)c1ccccc1` (centres undefined), inactive: -0.88%.
As for `CN(C)c1ccc(C(=O)NCC2(N(C)C)CCCCC2)cc1`, the figure is inactive: -4.5%.
For `CC(C)N1C(=O)CC2(CCN(CCOC(=O)C(O)(c3ccccc3)c3ccccc3)CC2)C1=O`, the activation is inactive: 9.73%.
As for `CCN(CC)CC(C)C(C)OC(=O)C(O)(c1ccccc1)c1ccccc1` (centres undefined), the figure is inactive: 8.42%.
As for `COc1cc(SC)ccc1C(=O)NCC1(N(C)C)CCCCC1`, the figure is inactive: 3.35%.
As to `Cc1ccc(C(=O)NCC2(N3CCCCC3)CCCCC2)cc1`, the activation was inactive: -2.52%.
As for `O=C(NCC1(N2CCCCC2)CCCCC1)c1cc([N+](=O)[O-])ccc1Cl`, the figure is inactive: 4.46%; as for `CN1[C@@H]2CC[C@H]1CC(OC(=O)C(O)(c1ccccc1)c1ccccc1)C2` (some centres undefined), inactive: -0.29%.
As to `COc1ccc(Br)c(C(=O)NCC2(N3CCCCC3)CCCCC2)c1`, the activation is inactive: 0%.
Consider `CN(C)c1cccc(C(=O)NCC2(N(C)C)CCCCC2)c1`, for which the activation was inactive: 3.51%.
With `CC(C)Oc1ccc(C(=O)NCC2(N(C)C)CCCCC2)cc1`, the activation was inactive: -17%.
As for `O=C(OC1CN2CCC1CC2)C(CO)(c1ccccc1)c1ccccc1` (centres undefined), the figure is inactive: -2.25%.
As for `COc1cccc(C(=O)NCC2(N3CCCCC3)CCCCC2)c1`, the figure is inactive: 3.31%; as for `COc1ccc(Cl)cc1C(=O)NCC1(N(C)C)CCCCC1`, inactive: 1.4%.
As for `O=C(NCC1(N2CCCCC2)CCCCC1)c1cccc(Cl)c1`, the figure is inactive: 10.9%.
With `CN(C)C1(CNC(=O)c2ccc(Br)cc2)CCCCC1`, the activation was inactive: 3.81%.
As for `COc1cc(C(=O)NCC2(N(C)C)CCCCC2)c([N+](=O)[O-])cc1OC`, the figure is inactive: -0.38%.
